This note sets out measurements from US20260034252A1, “FIBROBLAST ACTIVATION PROTEIN-TARGETED COMPOSITIONS AND METHODS OF USE THEREOF” (Ratio Therapeutics, Inc., priority 2022, published 2026).

Chains of the proteins cited; added tags and fusions are not shown.
UniProt Q12884, whole entry: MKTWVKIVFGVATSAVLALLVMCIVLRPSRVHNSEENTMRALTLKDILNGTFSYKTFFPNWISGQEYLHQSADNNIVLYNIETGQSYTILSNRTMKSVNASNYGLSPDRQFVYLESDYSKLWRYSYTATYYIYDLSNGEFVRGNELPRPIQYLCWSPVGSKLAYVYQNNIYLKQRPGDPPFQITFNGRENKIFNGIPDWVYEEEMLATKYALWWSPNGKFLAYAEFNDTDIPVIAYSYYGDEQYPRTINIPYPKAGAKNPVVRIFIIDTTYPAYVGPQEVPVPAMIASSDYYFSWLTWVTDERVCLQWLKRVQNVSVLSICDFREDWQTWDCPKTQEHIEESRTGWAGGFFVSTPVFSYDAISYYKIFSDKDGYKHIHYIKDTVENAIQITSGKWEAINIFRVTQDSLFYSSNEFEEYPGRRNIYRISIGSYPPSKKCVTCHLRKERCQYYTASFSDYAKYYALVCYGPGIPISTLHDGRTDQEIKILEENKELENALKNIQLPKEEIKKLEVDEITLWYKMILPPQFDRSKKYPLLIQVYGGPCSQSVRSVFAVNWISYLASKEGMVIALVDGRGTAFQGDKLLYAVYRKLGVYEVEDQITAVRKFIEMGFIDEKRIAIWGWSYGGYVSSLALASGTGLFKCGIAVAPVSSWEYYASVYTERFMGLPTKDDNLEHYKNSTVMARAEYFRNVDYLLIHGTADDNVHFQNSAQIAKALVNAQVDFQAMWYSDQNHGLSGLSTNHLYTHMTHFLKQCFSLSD

In general, IC50 refers to the concentration that inhibits the measured activity by half.

Where only a bound is given, the exact number is not on record here.

The test has as its target Human FAP (Homo sapiens (Human), UniProt Q12884). Description: FAP protease inhibition assay (FAM-labeled substrate peptide, microfluidic electrophoresis). The settings on record: enzyme 0.5 nM, substrate peptide 1 uM, 15 minutes pre-incubation, three hours for human FAP.
Take `CC(C)Cc1ccc(CC(=O)NCCCC[C@H](NC(=O)[C@H](CCCCNC(=S)Nc2ccc(CC3CN(CC(=O)O)CCN(CC(=O)O)CCN3CC(=O)O)cc2)NC(=O)CCOCCOCCOCCNC(=O)COc2ccc3c(C(=O)NCC(=O)N4CCC[C@H]4C#N)ccnc3c2)C(=O)O)cc1` (some centres unmarked): the half-maximal inhibitory concentration (IC50) was less than 0.1 nM.
For the compound `CCCCCC(=O)NCCCC[C@H](NC(=O)[C@H](CCCCNC(=S)Nc1ccc(CC2CN(CC(=O)O)CCN(CC(=O)O)CCN2CC(=O)O)cc1)NC(=O)CCOCCOCCOCCNC(=O)COc1ccc2c(C(=O)NCC(=O)N3CCC[C@@H]3C#N)ccnc2c1)C(=O)O` (some centres unmarked), the IC50 was 0.5 to 5 nM.
The compound `CCCC(=O)NCCCC[C@H](NC(=O)[C@H](CCCCNC(=S)Nc1ccc(CC2CN(CC(=O)O)CCN(CC(=O)O)CCN2CC(=O)O)cc1)NC(=O)CCOCCOCCOCCNC(=O)COc1ccc2c(C(=O)NCC(=O)N3CCC[C@@H]3C#N)ccnc2c1)C(=O)O` (some centres unmarked) yielded an IC50 of 0.5 to 5 nM.
The same measure for `N#C[C@H]1CCCN1C(=O)CNC(=O)c1ccnc2cc(OCC(=O)NCCOCCOCCOCCC(=O)N[C@@H](CCCCNC(=S)Nc3ccc(CC4CN(CC(=O)O)CCN(CC(=O)O)CCN(CC(=O)O)CCN4CC(=O)O)cc3)C(=O)N[C@@H](CCCCNC(=O)Cc3ccc(I)cc3)C(=O)O)ccc12` (some centres unmarked): 0.5 to 5 nM.
`CC(=O)NCCCC[C@H](NC(=O)[C@H](CCCCNC(=O)CCc1ccc(OC2=C(/C=C/C3=[N+](CCC[N+](C)(C)C)c4ccc(S(=O)(=O)O)cc4C3(C)C)CCC/C2=C\C=C2\N(CCC[N+](C)(C)C)c3ccc(S(=O)(=O)O)cc3C2(C)C)cc1)NC(=O)CCOCCOCCOCCNC(=O)COc1ccc2c(C(=O)NCC(=O)N3CCC[C@H]3C#N)ccnc2c1)C(=O)O`: the IC50 is less than 0.1 nM.
